{"source": "paper PMC9543247", "about": "(Angewandte Chemie (International Ed. in English), 2022)", "origin": "cited, not measured here", "system": "HDMX"}
{"sequence": "LTFEHYWAQLTS [pDI]", "values": [{"measurement": "affinity for HDMX (in words)", "value": "high affinity"}]}
